US11357850B2, “Methods for treating breast cancer using INOS-inhibitory compositions” (The Methodist Hospital, priority 2014, dated 2022)

Assays:
[1] = tested on: MDA-MB-231; assay: Cell proliferation assay (WST-1), iNOS inhibitors; type: cell-based, human; settings: 1, 2 and 4 mM, 96 hrs
Procedure: (§1) Cell Culture. Mesenchymal-like triple negative breast cancer cell lines, MDA-MB-231 and SUM159, were purchased from American Type Culture Collection and Asterand, respectively. […] Mammosphere forming efficiency (MSFE), cell proliferation and migration assays are detailed below. Cell culture and mammosphere forming efficiency assay. […] After treatment with either 1, 2, and 4 mM (1400 W and L-NMMA) or 1, 2, and 5 mM L-NAME for 96 hrs, primary mammospheres (MS) were scanned and counted using a colony counter (GelCount, Oxford Optronicx Abington, UNITED KINGDOM). Primary MSFE was evaluated dividing mammosphere number by cell number. […] Secondary MS were scanned, counted and secondary MSFE were assessed. […] Proliferation rate was determined by adding premixed WST-1 reagent (Clontech). After incubation at 37° C. for 3 hrs, absorbance was read at 450 nm (reference wavelength 690 nm).

[2] = tested on: SUM159; assay: Cell proliferation assay (WST-1), iNOS inhibitors; type: cell-based, human; settings: 1, 2 and 4 mM, 96 hrs
Procedure: as §1

## CC(=N)NCc1cccc(CN)c1 [1400 W, N-[[3-(aminomethyl)phenyl]methyl]-ethanimidamide]
[1]
  proliferation: significantly decrease proliferation
[2]
  proliferation: significantly decrease proliferation
